Tests used:
[1] = system: 24-hydroxylase (24-OHase) gene promoter in ROS 17/2.8 (bone) cells; test: In vitro transcription assay (24-hydroxylase promoter luciferase reporter); format: cell-based; conditions: ROS 17/2.8 cells, 16 hours; read-out: concentration stimulating 24-OHase gene expression in bone cells
Procedure: Transcription activity was measured in ROS 17/2.8 (bone) cells that were stably transfected with a 24-hydroxylase (24-Ohase) gene promoter upstream of a luciferase reporter gene (Arbour et al., Analytical Biochem. (1998) 255(1):148-154). Cells were given a range of doses. Sixteen hours after dosing the cells were harvested and luciferase activities were measured using a luminometer. RLU=relative luciferase units.

[2] = system: HL-60 cells; test: HL-60 differentiation (nitro blue tetrazolium reduction); format: cell-based; conditions: Homo sapiens, 96 h, 4 days, read-out: concentration inducing the differentiation of HL-60 cells in culture
Procedure: The study drugs were dissolved in ethanol and the concentrations determined using UV spectrophotometry. Serial dilutions were prepared so that a range of drug concentrations could be tested without changing the final concentration of ethanol (≦0.2%) present in the cell cultures.
Human promyelocytic leukemia (HL60) cells were grown in RPMI-1640 medium containing 10% fetal bovine serum. The cells were incubated at 37° C. in the presence of 5% CO2.
HL60 cells were plated at 1.2×10^5 cells/mL. Eighteen hours after plating, cells in duplicate were treated with drug. Four days later, the cells were harvested and a nitro blue tetrazolium reduction assay was performed (Collins et al., J. Exp. Med. (1979) 149:969-974). The percentage of differentiated cells was determined by counting a total of 200 cells and recording the number that contained intracellular black-blue formazan deposits. Verification of differentiation to monocytic cells was determined by measuring phagocytic activity (data not shown).

## C=C1/C(=C\C=C2/CCC[C@]3(C)[C@@H]([C@H](C)CCCC(C)(C)O)CC[C@@H]23)C[C@@H](O)C[C@@H]1O [1,25-(OH)2D3, 1α,25-dihydroxyvitamin D3]
[1]
  EC50: 0.2 nM
[2]
  EC50: 3 nM
